The values that follow come from article PMC7728344, “Pharmacokinetic Characterization of (Poly)phenolic Metabolites in Human Plasma and Urine after Acute and Short-Term Daily Consumption of Mango Pulp” (Molecules, 2020).

The format of the data set is in vivo, human. Further details: AUC0–24h: concentration or dose not given beside the values. Here is the method: SPE procedure was conducted to extract and concentrate the (poly)phenolic compounds and their metabolites from the plasma samples. Briefly, plasma samples were thawed on ice and 500 µL plasma was diluted with 1.5 mL of 0.1% formic acid in water with addition of internal standards (2-methylhippuric acid (2 ng/mL), phloridizin (1 ng/mL)) before being loaded on preconditioned SPE cartridges. The cartridges were washed with 0.1% formic acid in water (1 mL) after loading with plasma samples. The elution of the compounds was achieved by 0.1% formic acid in methanol (1 mL) and the eluent was dried under nitrogen gas at room temperature. […] Supernatant was collected in amber HPLC vials before analysis.
The absorption and elimination of 11 major mango metabolites over 24 h was determined after MP, MP + VC, and VC intake. The plasma concentration/area at each time point was determined by the mean of 13 subjects. The time vs. concentration curves and the time vs. area curves were created using GraphPad Prism (version 8.2.1). […] Tmax is the time (h) when Cmax was achieved. Wilcoxon signed-rank test was used for Tmax analysis due to non-normal distribution. Area under the plasma concentration time curve (AUC0−24h, nmol·h/L) was calculated by the linear trapezoidal method using Microsoft Excel 2013, version 15 [63]. […]

Setting [1] is: human plasma, 0−24 h, after VC (vitamin C 100 mg) beverage, mean ± standard error, read-out: Cmax.
Where [2] appears, read: human plasma, after VC beverage, mean ± standard error.

Like-named read-outs stand apart in the source and are kept apart here.

ferulic acid hexoside [Compound C5]: where the note is “after mango intake”, the “time to reach maximum concentration/area in plasma” value is 1 to 2 h and the “time within which cleared from the bloodstream” value was 6 to 8 h. Moreover, under setting [1], the highest concentration (Cmax) turned out to be 0.5 ± 0.1 nM. For the same substance, the “AUC0–24h” value under setting [2] came to 0.0025 ± 0.0001 µM·h. Under “human, in vivo”, the “AUC0–24h” value is 0.0077 ± 0.0012 µM·h, the highest level (Cmax) was 2.3 ± 0.4 nM and the time to peak (Tmax) amounted to 1.8 ± 0.2 h.
For “methylpyrogallol sulfate isomer 1 [Compound C6]”, where the note is “human, in vivo”, the “AUC0–24h” value was 0.6169 ± 0.0837 µM·h, the highest concentration (Cmax) came to 230 ± 32.3 nM and the Tmax was 8.6 ± 0.5 h.
“methylpyrogallol glucuronide [Compound C9]”: the Cmax under setting [1] worked out at 4.8 ± 0.3 nM. The “AUC0–24h” value under setting [2] was 0.0261 ± 0.0017 µM·h. Moreover, under “human, in vivo”, the “AUC0–24h” value is 0.0291 ± 0.003 µM·h, the Cmax stood at 6.7 ± 2.3 nM and the time of peak concentration (Tmax) is recorded as 7.2 ± 2.4 h.
As to “methylpyrogallol sulfate isomer 2 [Compound C7]”, where the note is “human, in vivo”, the “AUC0–24h” value was 0.3754 ± 0.0943 µM·h, the peak concentration (Cmax) worked out at 244 ± 71.8 nM and the time to peak (Tmax) is listed as 9.8 ± 1.8 h.

Broadly, the Cmax is the peak of the concentration-time curve. The Tmax is the time from dosing to the highest level.
